Earlier results on one substance are cited in publication PMC3837291.

By UniProt entry, the sequences of proteins in these tests, tags left out. Residues count along the entry.
UniProt P43896, 56-338: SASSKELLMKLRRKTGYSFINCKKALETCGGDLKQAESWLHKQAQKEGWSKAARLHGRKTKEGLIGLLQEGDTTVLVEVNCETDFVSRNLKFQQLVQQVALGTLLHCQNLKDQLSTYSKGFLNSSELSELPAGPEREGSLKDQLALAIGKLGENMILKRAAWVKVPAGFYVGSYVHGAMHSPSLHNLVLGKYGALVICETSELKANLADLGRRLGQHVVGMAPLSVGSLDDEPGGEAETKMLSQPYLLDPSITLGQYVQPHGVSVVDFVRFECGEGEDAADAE

Usually Kd stands for the concentration at which binding is half-saturated.

In this data set the target is EF-Tsmt (Bos taurus) (UniProt P43896).

Consider EF-Tumt (from UniProt P49410), for which the Kd is 5.5 nM.
